Results from ChEMBL document CHEMBL4257227, “Deubiquitinase inhibitors and methods for use of the same” (2016).
Active and inactive are the calls of the source. The rule behind the calls is not given here.

Columns and labels:
[1] = target: T1, Ubiquitin carboxyl-terminal hydrolase 5 (Homo sapiens) (UniProt P45974); assay: Inhibition of USP5 in Vemurafenib sensitive human A375 cells
T1 sequence (whole entry): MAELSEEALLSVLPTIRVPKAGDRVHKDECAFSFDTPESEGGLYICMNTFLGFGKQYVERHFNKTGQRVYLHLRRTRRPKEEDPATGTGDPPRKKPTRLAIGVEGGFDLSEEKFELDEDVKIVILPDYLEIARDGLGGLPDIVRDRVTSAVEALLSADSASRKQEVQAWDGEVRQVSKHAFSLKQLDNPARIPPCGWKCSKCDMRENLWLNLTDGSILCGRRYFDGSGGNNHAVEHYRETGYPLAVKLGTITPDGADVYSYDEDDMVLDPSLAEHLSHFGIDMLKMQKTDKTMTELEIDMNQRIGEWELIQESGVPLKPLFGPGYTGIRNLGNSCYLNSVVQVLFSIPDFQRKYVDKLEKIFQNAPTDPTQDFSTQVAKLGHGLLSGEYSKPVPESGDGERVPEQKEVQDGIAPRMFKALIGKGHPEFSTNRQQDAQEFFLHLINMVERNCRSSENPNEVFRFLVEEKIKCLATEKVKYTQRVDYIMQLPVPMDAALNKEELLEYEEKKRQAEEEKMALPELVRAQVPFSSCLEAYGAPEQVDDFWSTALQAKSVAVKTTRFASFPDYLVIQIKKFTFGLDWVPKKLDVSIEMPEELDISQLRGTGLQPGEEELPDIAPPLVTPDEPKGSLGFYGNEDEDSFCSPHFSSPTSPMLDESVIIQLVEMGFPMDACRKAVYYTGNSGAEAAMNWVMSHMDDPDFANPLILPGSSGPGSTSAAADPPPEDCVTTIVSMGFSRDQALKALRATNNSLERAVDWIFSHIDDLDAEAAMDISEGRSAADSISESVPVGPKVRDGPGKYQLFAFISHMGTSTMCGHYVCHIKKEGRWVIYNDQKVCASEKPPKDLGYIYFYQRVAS

[2] = target: T1, Ubiquitin carboxyl-terminal hydrolase 5 (Homo sapiens); assay: Inhibition of USP5 in Vemurafenib resistant human A375 cells

- inhibition [1]: Active
- inhibition [2]: inactive
Structure (SMILES): CCCS(=O)(=O)Nc1ccc(F)c(C(=O)c2c[nH]c3ncc(-c4ccc(Cl)cc4)cc23)c1F [VEMURAFENIB]
